Antibody variant affinities, Ab-95 light chain, assay 2

Target: peptide PDVDLGDISGINAS, taken from heptad repeat 2 (HR2) of SARS-CoV-2 spike.

Parent: Ab-95, a human scFv built as VH, a (GGGGS)3 linker, VL. Only the CDRs of the light chain vary.
VH: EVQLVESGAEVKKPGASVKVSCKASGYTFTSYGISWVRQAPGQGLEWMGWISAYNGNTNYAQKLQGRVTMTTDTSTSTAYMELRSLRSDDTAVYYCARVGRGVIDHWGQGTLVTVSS
VL: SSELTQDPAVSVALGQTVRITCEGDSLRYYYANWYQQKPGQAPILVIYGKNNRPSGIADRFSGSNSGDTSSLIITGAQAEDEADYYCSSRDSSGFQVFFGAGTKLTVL

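The parent was found by panning a naive human phage display library on the peptide. Library AAYL52 holds single substitutions and randomly drawn double and triple substitutions in the CDRs. AlphaSeq pools MATa yeast showing the antibodies with MATalpha yeast showing the peptide. Pairs that bind mate more often; barcode pairs of the diploids are counted by sequencing. The ratio of observed to expected reads was calibrated, replicate by replicate, on BCL2-family standards whose Kd was known from biolayer interferometry. Each pool was mated in three replicate cultures.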

Variants are written as CDR1, CDR2 and CDR3 of the light chain (limits as in the source). Parent: EGDSLRYYYAN, GKNNRPS, SSRDSSGFQVF.
The read-out is the apparent dissociation constant on a log10 scale (nM): the lower, the stronger.
Replicates are averaged; those with no signal do not enter the mean.
A pair that was not seen in that replicate is written "nd"; this usually means weak binding, but a binder can also be missed.
Empty control strains, which show no peptide, gave a signal in 28% of pairings with library AAYL52; the median was 3.91 and 95% of these signals were weaker than 2.90. No background was subtracted. The control count says in how many pairings with the empty strains this scFv gave a signal.

Variant CGDSLRYYYAT | GKNNRPS | SSRDSSGFCVF showed 4.12, 4.92, nd (mean 4.52; controls 3 of 9).
Variant EGDGLRYYYAN | GKNNRPS | SERDSSHFQVF showed 2.03, 2.07, 2.66 (mean 2.25; controls 2 of 9).
Variant EGDSLRYYYAN | GKNRRPS | SSNDSSKFQVF showed nd, nd, nd (controls 0 of 9).
Variant CGDSLRYYSAN | KKNNRPS | SSRDSSGFQVF showed nd, 4.24, nd (controls 0 of 9).
Variant MGDSLRYYYAN | GKNHRPS | SSRDSSGFQTF showed 4.66, 5.00, nd (mean 4.83; controls 5 of 9).
Variant EGDSLRYYYAN | GKNNKPS | SSRWSSGFTVF showed 3.17, 2.68, 2.37 (mean 2.74; controls 0 of 9).
Variant EGDSLRSYYAN | GKNNKPP | SSRDSSGFQVF showed 1.35, 1.07, 0.72 (mean 1.05; controls 2 of 9).
Variant EWDFLRYYYAN | GKNNRPS | SSRDSSGFQVF showed 3.31, nd, nd (controls 3 of 9).
Variant EGDSLRYYYAK | GKNNRPS | SSRDSSIHQVF showed nd, 4.24, nd (controls 2 of 9).
Variant EVDSLRMYYAN | GKNNRPS | SSRDSSGSQVF showed 3.09, 5.05, 3.91 (mean 4.02; controls 3 of 9).
Variant EGDSLRYYYAN | GKQHRPS | SSRDNSGFQVF showed 4.29, nd, nd (controls 0 of 9).
Variant EGDSLRYYYAN | GKMFRPS | SNRDSSGFQVF showed nd, nd, nd (controls 0 of 9).
Variant EGDSLEKYYAN | GKNNRPS | SSRDESGFQVF showed 2.17, 1.93, 2.08 (mean 2.06; controls 3 of 9).
Variant EGDSERYYYAN | GKNNQPS | ISRDSSGFQVF showed 3.95, 4.59, 4.78 (mean 4.44; controls 5 of 9).
Variant EGDSLRYFYAN | GSNNRPS | SSRDSSGKQVF showed 3.72, 4.11, nd (mean 3.91; controls 3 of 9).
Variant EGDSLRYYYAN | GKNNRMS | SSRRSSGFQVF showed nd, 4.31, 4.44 (mean 4.37; controls 3 of 9).
Variant EGDSLRYYYAN | PKNNRES | SSRDSSGFQVF showed nd, nd, 4.10 (controls 3 of 9).
Variant EGDSLRYYYAN | GKNNRPS | SSTGSSGFQVH showed 3.41, 3.40, 3.58 (mean 3.47; controls 3 of 9).
Variant KGDSLRYYYAN | GRNNRPS | SSRDSSHFQVF showed nd, 5.17, nd (controls 2 of 9).
Variant EGDSLRYYYAY | GKNNRYS | SSRDSSGFQVF showed 4.31, nd, 4.58 (mean 4.44; controls 2 of 9).
Variant EGNYLRYYYAN | GKNNRPS | SSRDSRGFQVF showed 3.82, 3.00, 4.01 (mean 3.61; controls 3 of 9).
Variant EGDSLRYYPFN | GKNNRPS | SSRDSSQFQVF showed 2.69, 2.67, 2.99 (mean 2.78; controls 2 of 9).
Variant EGDSLRYYLAN | GKNNIPS | SSRDSSGFQVP showed nd, nd, 3.00 (controls 1 of 9).
Variant EGDSLRYYYAT | GKNNRPS | SSSHSSGFQVF showed 3.48, nd, nd (controls 4 of 9).
Variant EGVSLRYYYAF | GKNNRPS | SSRDSSGLQVF showed 3.50, nd, nd (controls 1 of 9).
Variant EGNSLRYYYAN | GKDNRPS | SSRDLSGFQVF showed 3.13, nd, 3.88 (mean 3.50; controls 1 of 9).
Variant EGDSLRYYYRN | GENNRWS | SSRDSSGFQVF showed nd, nd, nd (controls 3 of 9).
Variant EGDSLRYYYSN | GKNWRPS | SSEDSSGFQVF showed 4.33, 6.02, nd (mean 5.18; controls 6 of 9).
Variant SGDSLRYNWAN | GKNNRPS | SSRDSSGFQVF showed 0.68, 0.64, -0.05 (mean 0.43; controls 7 of 9).
Variant VVDSLRYYYAN | GKNNRPS | ASRDSSGFQVF showed 3.19, 3.45, 2.89 (mean 3.18; controls 5 of 9).
Variant EGDSLRYYIAN | GKNNRPS | SSRDSMGFCVF showed 3.59, nd, nd (controls 0 of 9).
Variant EGDFLKYYYAN | GDNNRPS | SSRDSSGFQVF showed 2.62, 2.32, 2.34 (mean 2.43; controls 5 of 9).
Variant SGDSLRYIYAN | GKNNRQS | SSRDSSGFQVF showed 3.94, 3.35, nd (mean 3.65; controls 0 of 9).
Variant EGDSLRHYYAN | GKNDRPP | SSRDSSGFQVF showed 2.50, 2.37, 2.04 (mean 2.30; controls 5 of 9).
Variant EGPSDRYYYAN | GKNNRPS | SSRDSVGFQVF showed 2.25, 2.08, 1.69 (mean 2.01; controls 2 of 9).
Variant EGDSLRYYYAI | GKNNRPS | SSRDPSGFQVF showed nd, 4.83, 3.25 (mean 4.04; controls 1 of 9).
Variant EYDSLRYYYAN | GKNNRNS | SSRDSFGFQVF showed 2.77, nd, 3.00 (mean 2.88; controls 2 of 9).
Variant SGDSLRYYYAN | GKNNRPS | SSRDSHSFQVF showed nd, 3.54, nd (controls 2 of 9).
Variant EGKHLRYYYAN | GYNNRPS | SSRDSSGFQVF showed 2.99, 2.92, 2.41 (mean 2.77; controls 5 of 9).

Reference: Engelhart et al. 2022, doi:10.1038/s41597-022-01779-4. File: FLAb, binding data.